Results on four molecules are retold here after ChEMBL document CHEMBL3585322, “Synthesis, enantiomeric separation and docking studies of spiropiperidine analogues as ligands of the nociceptin/orphanin FQ receptor” (2014).

For orientation: pEC50 means the negative decadic logarithm of the EC50, by convention in mol/L.

Molecules are shown by their SMILES.

The target of the experiment is Nociceptin receptor (Homo sapiens, UniProt P41146). Nature of the experiment: Agonist activity at human recombinant NOP receptor expressed in CHO cells co-expressing C-terminally modifed Gaqi5 protein by Fluo-4AM dye based calcium mobilization assay. In general terms: Calcium flux is commonly read through the fluorescence of an indicator in the cells.

On to `O=C(O)C(=O)O.O=C1NCN(c2ccccc2)C12CCN(C1CCOc3cccc(F)c31)CC2` (centres undefined), for which the pEC50 is 6.37.
For `O.O=C(O)C(=O)O.O=C1NCN(c2ccccc2)C12CCN(C1CCOc3ccccc31)CC2` (centres undefined) the value was 6.8; for `O.O=C(O)C(=O)O.O=C1NCN(c2ccccc2)C12CCN([C@@H]1CCOc3ccccc31)CC2`, 7.34.
For `O.O=C(O)C(=O)O.O=C1NCN(c2ccccc2)C12CCN([C@H]1CCOc3ccccc31)CC2` the value was 6.68.
